By UniProt entry, the sequences of proteins in these tests, tags left out. Residues count along the entry.
UniProt Q5VWK5, 24-354 limits assumed, looked up: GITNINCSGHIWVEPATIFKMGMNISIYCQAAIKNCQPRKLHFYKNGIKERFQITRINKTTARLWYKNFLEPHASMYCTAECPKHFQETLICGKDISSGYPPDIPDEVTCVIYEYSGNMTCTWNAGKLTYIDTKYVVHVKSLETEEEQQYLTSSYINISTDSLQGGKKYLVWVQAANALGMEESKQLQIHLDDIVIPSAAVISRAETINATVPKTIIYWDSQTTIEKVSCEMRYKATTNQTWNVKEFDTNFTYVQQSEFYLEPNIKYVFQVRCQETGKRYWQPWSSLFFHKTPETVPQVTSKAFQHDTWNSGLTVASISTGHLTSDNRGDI

The target in the first assay is human IL-23R (IL23R_huFC) (Homo sapiens, UniProt Q5VWK5). As to conditions: read-out: ELISA IL23R/IL23 in nMoles (IC50); non-cyclic peptides.
Consider `CC(C)C[C@H](NC(=O)[C@H](Cc1c[nH]c2ccccc12)NC(=O)[C@H](Cc1ccc(O)cc1)NC(=O)[C@H](CC(=O)O)NC(=O)[C@H](CCC(N)=O)NC(=O)[C@H](Cc1c[nH]c2ccccc12)NC(=O)[C@@H](NC(=O)[C@H](C)NC(=O)[C@H](C)N)[C@@H](C)O)C(=O)N[C@@H](Cc1ccc(O)cc1)C(=O)NCC(=O)N[C@@H](CCCNC(=N)N)C(=O)O` [compound 11], for which the IC50 came out at 7.79 µM.

`CSCC[C@H](NC(=O)[C@H](C)N)C(=O)N[C@H](C(=O)N[C@@H](Cc1c[nH]c2ccccc12)C(=O)N[C@@H](C)C(=O)N[C@@H](CC(=O)O)C(=O)N[C@@H](Cc1ccc(O)cc1)C(=O)N[C@@H](Cc1c[nH]c2ccccc12)C(=O)N[C@@H](CC(C)C)C(=O)N[C@@H](Cc1ccc(O)cc1)C(=O)NCC(=O)N[C@@H](CCCNC(=N)N)C(=O)O)[C@@H](C)O` [compound 14]: the IC50 turned out to be 6.25 µM.

The same assay, now with this note: read-out: Human ELISA IC50; Table E4B; numeric bounds.
Turning to `CC(=O)N[C@@H](C)C(=O)N[C@@H]1C(=O)N[C@@H](CC(=O)O)C(=O)N[C@@H](Cc2c[nH]c3ccccc23)C(=O)N[C@@H](C(C)C)C(=O)N[C@H](C(=O)N[C@@H](Cc2ccc(O)cc2)C(=O)N[C@@H](Cc2c[nH]c3ccccc23)C(=O)N[C@@H](CCCN)C(=O)N[C@@H](CN)C(=O)N[C@@H](Cc2ccccc2)C(=O)NCC(=O)NCCOCC(=O)N[C@H](CCCCN)C(N)=O)C(C)(C)SSC1(C)C` [compound 553], the IC50 was > 30 µM.

With `CC(=O)N[C@@H]1C(=O)N[C@@H](CCC(N)=O)C(=O)N[C@@H]([C@@H](C)O)C(=O)N[C@@H](Cc2c[nH]c3ccccc23)C(=O)N[C@@H](CCC(N)=O)C(=O)N[C@H](C(=O)N[C@@H](Cc2ccc(O)cc2)C(=O)N[C@@H](Cc2c[nH]c3ccccc23)C(=O)N(C)[C@@H](CCCNC(=N)N)C(=O)N[C@@H](CCC(=O)O)C(=O)N[C@@H](CC(N)=O)C(=O)NCC(N)=O)C(C)(C)SSC1(C)C` [compound 550], the IC50 is > 30 µM.

The same assay, now with this note: read-out: Human ELISA IL23/IL23R.
As to `CC(=O)N[C@H]1CSSC[C@@H](C(=O)N[C@@H](Cc2ccc(O)cc2)C(=O)N[C@@H](Cc2c[nH]c3ccccc23)C(=O)N[C@@H](C)CC(=O)N[C@H](C(=O)N[C@@H](CC(N)=O)C(=O)NCC(=O)NCCOCC(=O)N[C@H](CCCCN)C(N)=O)C(C)C)NC(=O)[C@H](CCC(N)=O)NC(=O)[C@H](Cc2c[nH]c3ccccc23)NC(=O)[C@H]([C@@H](C)O)NC(=O)[C@H](CCC(N)=O)NC1=O` [compound 334], the IC50 was determined as 0.355 µM.

With `CCC(CC)(NC(=O)[C@H](CCCN)NC(=O)[C@H](Cc1c[nH]c2ccccc12)NC(=O)[C@H](Cc1ccc(O)cc1)NC(=O)[C@@H]1CSSC[C@H](NC(C)=O)C(=O)N[C@@H](C)C(=O)N[C@@H](CC(=O)O)C(=O)N[C@@H](Cc2c[nH]c3ccccc23)C(=O)N[C@@H](C(C)C)C(=O)N1)C(=O)N[C@@H](Cc1ccccc1)C(=O)NCC(=O)NCCOCC(=O)N[C@H](CCCCN)C(N)=O` [compound 83], the IC50 is ~6 µM. Take `CC(=O)N[C@H]1CSSC[C@@H](C(=O)N[C@@H](Cc2ccc(O)cc2)C(=O)N[C@@H](Cc2c[nH]c3ccccc23)C(=O)N[C@H](CC(=O)N[C@H](C(=O)N[C@@H](CC(N)=O)C(=O)NCC(=O)NCCOCC(=O)N[C@H](CCCCN)C(N)=O)C(C)C)C(C)C)NC(=O)[C@H](CCC(N)=O)NC(=O)[C@H](Cc2c[nH]c3ccccc23)NC(=O)[C@H]([C@@H](C)O)NC(=O)[C@H](CCC(N)=O)NC1=O` [compound 335]: the IC50 stood at 0.501 µM.

With `CC(=O)N[C@H]1CSSC[C@@H](C(=O)N[C@@H](Cc2ccc(O)cc2)C(=O)N[C@H](CC(=O)N[C@@H](CCCNC(=N)N)C(=O)N[C@H](C(=O)N[C@@H](CC(N)=O)C(=O)NCC(=O)NCCOCC(=O)N[C@H](CCCCN)C(N)=O)C(C)C)Cc2ccc(F)cc2)NC(=O)[C@H](CCC(N)=O)NC(=O)[C@H](Cc2c[nH]c3ccccc23)NC(=O)[C@H]([C@@H](C)O)NC(=O)[C@H](CCC(N)=O)NC1=O` [compound 322], the IC50 was > 30 µM.

As to `CC(=O)N[C@H]1CSSC[C@@H](C(=O)N[C@@H](Cc2ccc(O)cc2)C(=O)N[C@H](Cc2c[nH]c3ccccc23)C(=O)N[C@@H](CCCN)C(=O)N[C@@H](CN)C(=O)N[C@@H](Cc2ccccc2)C(=O)NCC(=O)NCCOCC(=O)N[C@H](CCCCN)C(N)=O)NC(=O)[C@H](C(C)C)NC(=O)[C@H](Cc2c[nH]c3ccccc23)NC(=O)[C@H](CC(=O)O)NC(=O)[C@H](C)NC1=O` [compound 70], the IC50 is > 30 µM. The same measure, in the same setting: the result for `CC(=O)N[C@H]1CSSC[C@@H](C(=O)N[C@@H](Cc2ccc(O)cc2)C(=O)N[C@@H](Cc2cc(F)cc(F)c2)C(=O)N[C@@H](CCCN)C(=O)N[C@@H](CN)C(=O)N[C@@H](Cc2ccccc2)C(=O)NCC(=O)NCCOCC(=O)N[C@H](CCCCN)C(N)=O)NC(=O)[C@H](C(C)C)NC(=O)[C@H](Cc2c[nH]c3ccccc23)NC(=O)[C@H](CC(=O)O)NC(=O)[C@H](C)NC1=O` [compound 73] reads ~6 µM; that for `CC(=O)N[C@H]1CSSC[C@@H](C(=O)N[C@@H](Cc2ccc(O)cc2)C(=O)N[C@@H](Cc2c[nH]c3ccccc23)C(=O)N[C@@H](CCCNC(=N)N)C(=O)N[C@@H](C)CC(=O)N[C@@H](CC(N)=O)C(=O)NCC(=O)NCCOCC(=O)N[C@H](CCCCN)C(N)=O)NC(=O)[C@H](CCC(N)=O)NC(=O)[C@H](Cc2c[nH]c3ccccc23)NC(=O)[C@H]([C@@H](C)O)NC(=O)[C@H](CCC(N)=O)NC1=O` [compound 328], 0.457 µM; that for `CC(=O)N[C@H]1CSSC[C@@H](C(=O)N[C@@H](Cc2ccc(O)cc2)C(=O)N[C@H](CC(=O)N[C@@H](CCCNC(=N)N)C(=O)N[C@H](C(=O)N[C@@H](CC(N)=O)C(=O)NCC(=O)NCCOCC(=O)N[C@H](CCCCN)C(N)=O)C(C)C)Cc2ccc(O)cc2)NC(=O)[C@H](CCC(N)=O)NC(=O)[C@H](Cc2c[nH]c3ccccc23)NC(=O)[C@H]([C@@H](C)O)NC(=O)[C@H](CCC(N)=O)NC1=O` [compound 321], > 30 µM.

The assay is the same for the next values; noted with them: read-out: Human IL23/IL23R ELISA IC50; Table E3H.
For `CC(=O)N[C@H]1CSSC[C@@H](C(=O)N[C@@H](Cc2ccc(O)cc2)C(=O)N[C@@H](Cc2c[nH]c3ccccc23)C(=O)N[C@@H](CCC(C)C)C(=O)N[C@@H](CCC(=O)O)C(=O)N[C@H](C(=O)NCC(N)=O)[C@@H](C)O)NC(=O)[C@H](CCC(N)=O)NC(=O)[C@H](Cc2c[nH]c3ccccc23)NC(=O)[C@H]([C@@H](C)O)NC(=O)[C@H](CCC(N)=O)NC1=O` [compound 402], the IC50 stood at 0.818 µM. Consider `CC(=O)N[C@H]1CSSC[C@@H](C(=O)N[C@@H](Cc2ccc(O)cc2)C(=O)N[C@@H](Cc2c[nH]c3ccccc23)C(=O)N[C@@H](CCCNC(=N)N)C(=O)N[C@@H](CC(N)=O)C(=O)N[C@@H](Cc2ccccc2)C(=O)N[C@@H](CCC(=O)O)C(=O)N[C@@H](CO)C(=O)NCC(N)=O)NC(=O)[C@H](CCC(N)=O)NC(=O)[C@H](Cc2c[nH]c3ccccc23)NC(=O)[C@H]([C@@H](C)O)NC(=O)[C@H](CCC(N)=O)NC1=O` [compound 508], for which the IC50 was 0.315 µM.

On to `CC(=O)N[C@H]1CSSC[C@@H](C(=O)N[C@@H](Cc2ccc(O)cc2)C(=O)N[C@@](C)(Cc2c[nH]c3ccccc23)C(=O)N[C@@H](CCC(C)C)C(=O)N[C@@H](CCC(=O)O)C(=O)N[C@@H](CCC(N)=O)C(=O)NCC(N)=O)NC(=O)[C@H](CCC(N)=O)NC(=O)[C@H](Cc2c[nH]c3ccccc23)NC(=O)[C@H]([C@@H](C)O)NC(=O)[C@H](CCC(N)=O)NC1=O` [compound 496], for which the IC50 is > 30 µM.

The same assay, now with this note: read-out: Human IL23R/IL23 ELISA; peptide dimers, numeric.
On to `CC(=O)N[C@H]1CSSC[C@@H](C(=O)N[C@@H](Cc2ccc(O)cc2)C(=O)N[C@@H](Cc2c[nH]c3ccccc23)C(=O)N[C@@H](Cc2c[nH]cn2)C(=O)N[C@@H](CCCCNC(=O)COCC(=O)NCCCC[C@H](NC(=O)[C@H](Cc2c[nH]cn2)NC(=O)[C@H](Cc2c[nH]c3ccccc23)NC(=O)[C@H](Cc2ccc(O)cc2)NC(=O)[C@@H]2CSSC[C@H](NC(C)=O)C(=O)N[C@@H](C)C(=O)N[C@@H](CC(=O)O)C(=O)N[C@@H](Cc3c[nH]c4ccccc34)C(=O)N[C@@H](C(C)C)C(=O)N2)C(=O)N[C@@H](Cc2ccccc2)C(=O)NCC(=O)O)C(=O)N[C@@H](Cc2ccccc2)C(=O)NCC(=O)O)NC(=O)[C@H](C(C)C)NC(=O)[C@H](Cc2c[nH]c3ccccc23)NC(=O)[C@H](CC(=O)O)NC(=O)[C@H](C)NC1=O` [compound 299], for which the IC50 is > 10 µM. The same measure, in the same setting: the result for `CC(=O)N[C@H]1CSSC[C@@H](C(=O)N[C@@H](Cc2ccc(O)cc2)C(=O)N[C@@H](Cc2c[nH]c3ccccc23)C(=O)N[C@@H](Cc2c[nH]cn2)C(=O)N[C@H](C(=O)N[C@@H](Cc2ccccc2)C(=O)NCC(=O)O)[C@@H](C)O)NC(=O)[C@H](C(C)C)NC(=O)[C@H](Cc2c[nH]c3ccccc23)NC(=O)[C@H](CC(=O)O)NC(=O)[C@H](CCCCNC(=O)COCC(=O)NCCCC[C@@H]2NC(=O)[C@@H](NC(C)=O)CSSC[C@@H](C(=O)N[C@@H](Cc3ccc(O)cc3)C(=O)N[C@@H](Cc3c[nH]c4ccccc34)C(=O)N[C@@H](Cc3c[nH]cn3)C(=O)N[C@H](C(=O)N[C@@H](Cc3ccccc3)C(=O)NCC(=O)O)[C@@H](C)O)NC(=O)[C@H](C(C)C)NC(=O)[C@H](Cc3c[nH]c4ccccc34)NC(=O)[C@H](CC(=O)O)NC2=O)NC1=O` [compound 296] reads > 10 µM; that for `CC(=O)N[C@H]1CSSC[C@@H](C(=O)N[C@@H](Cc2ccc(O)cc2)C(=O)N[C@@H](Cc2c[nH]c3ccccc23)C(=O)N[C@@H](Cc2c[nH]cn2)C(=O)N[C@H](C(=O)N[C@@H](Cc2ccccc2)C(=O)N[C@@H](CC(=O)O)C(=O)N[C@@H](CCCCNC(=O)COCC(=O)NCCCC[C@H](NC(=O)[C@H](CC(=O)O)NC(=O)[C@H](Cc2ccccc2)NC(=O)[C@@H](NC(=O)[C@H](Cc2c[nH]cn2)NC(=O)[C@H](Cc2c[nH]c3ccccc23)NC(=O)[C@H](Cc2ccc(O)cc2)NC(=O)[C@@H]2CSSC[C@H](NC(C)=O)C(=O)N[C@@H](C)C(=O)N[C@@H](CC(=O)O)C(=O)N[C@@H](Cc3c[nH]c4ccccc34)C(=O)N[C@@H](C(C)C)C(=O)N2)[C@@H](C)O)C(=O)O)C(=O)O)[C@@H](C)O)NC(=O)[C@H](C(C)C)NC(=O)[C@H](Cc2c[nH]c3ccccc23)NC(=O)[C@H](CC(=O)O)NC(=O)[C@H](C)NC1=O` [compound 301], > 10 µM.

The record behind these values is patent publication US10787490B2, “Peptide inhibitors of interleukin-23 receptor and their use to treat inflammatory diseases” (Protagonist Therapeutics, Inc., priority 2015, dated 2020).
